# Binding of CDR-mutated scFvs to a peptide of the spike HR2 region

Data: MIT Lincoln Laboratory AlphaSeq set, Engelhart et al. 2022, doi:10.1038/s41597-022-01779-4, as distributed in FLAb.

All variants were tested on one target, the spike HR2 peptide PDVDLGDISGINAS (SARS-CoV-2).

Ab-14 is the parent antibody, in scFv form: VH, then a (GGGGS)3 linker, then VL. The heavy chain is unchanged in all variants.
VH: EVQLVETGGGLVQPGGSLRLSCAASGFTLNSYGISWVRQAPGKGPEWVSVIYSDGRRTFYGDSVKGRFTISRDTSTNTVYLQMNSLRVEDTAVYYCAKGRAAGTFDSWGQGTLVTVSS
VL: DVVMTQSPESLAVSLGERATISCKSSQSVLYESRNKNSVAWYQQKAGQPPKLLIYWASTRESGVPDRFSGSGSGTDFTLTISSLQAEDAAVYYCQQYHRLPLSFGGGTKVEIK

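The parent was found by panning a naive human phage display library on the peptide. The library (AAYL50) carries one to three amino acid substitutions per variant, with no insertions or deletions. The assay is AlphaSeq: two haploid yeast populations carry antibody and antigen on their surface. The frequency of each diploid, read from paired DNA barcodes, reflects how well the two displayed proteins bind. Read counts were normalised to the haploid input and turned into Kd by a linear fit to BCL2-family pairs of known affinity, for each replicate. The assay was run in three technical replicates.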

Variants are written as CDR1, CDR2 and CDR3 of the light chain (limits as in the source). Parent: KSSQSVLYESRNKNSVA, WASTRES, QQYHRLPLS. Every variant below is changed at K24 of the VL (sequential numbering). Kd is apparent (estimated from mating counts) and averaged on the log scale over replicates with a signal. Smaller is tighter. "no signal" marks a missing value. The strain was present, yet no cells mated with the target were sequenced in any replicate, which points to weak or no binding.

For YSDQSVLYESRNKNSVA / WASTRES / QQYHRLPLC, the assay gave 25 nM (3 of 3 replicates).
For WMSQSVLYESRNKNSVA / TASTRES / QQYHRLPLS, the assay gave 1.4 µM (1 of 3 replicates).
For ASSQSVLYESLAKNSVA / WASTRES / QQYHRLPLS, the assay gave 3.6 µM (2 of 3 replicates).
For YSSQSVLYESRNKNSVA / WASTRES / QGVHRLPLS, the assay gave 23 nM (3 of 3 replicates).
For LSSQSVLYGSRNKNSVA / WASTRES / QQYHRLPSS, the assay gave 52 µM (2 of 3 replicates).
For YSTQSVLYESRNKNSVA / WASTIES / QQYHRLPLS, the assay gave 3.4 µM (3 of 3 replicates).
For CSSQSVLYESRNKNSVA / WAYTRES / QQYDRLPLS, the assay gave 770 µM (1 of 3 replicates).
For GSSQSVLYESRNKNSIA / WASTRES / NQYHRLPLS, the assay gave 68 nM (3 of 3 replicates).
For NSSCIVLYESRNKNSVA / WASTRES / QQYHRLPLS, the assay gave 120 µM (2 of 3 replicates).
For DSSQSVLYESRNKNSVA / WASTRES / QQFHRPPLS, the assay gave no signal (0 of 3 replicates).
For YSSQSVLYESRNKNSVA / WASTRES / QQYHCLPSS, the assay gave 17 µM (2 of 3 replicates).
For DSSQSSLYESRNKNSVA / WAYTRES / QQYHRLPLS, the assay gave 15 µM (2 of 3 replicates).
For ESSQSVTYESRNKNSVA / WASTREW / QQYHRLPLS, the assay gave 79 nM (3 of 3 replicates).
For DSSQSVLYESRNKNSVA / WASTRES / QFYHRLPLS, the assay gave no signal (0 of 3 replicates).
For GSSRSVLYESRNKNSVA / WAKTRES / QQYHRLPLS, the assay gave 8.9 µM (1 of 3 replicates).
For QSSQQVLYESRNKNSVA / WASTRES / QQYHRLPLS, the assay gave 17 nM (3 of 3 replicates).
For ESSQSVLYESRNKNSVA / WVSTRES / QQYHRLPLS, the assay gave 8.2 µM (3 of 3 replicates).
For DSSQSVLYESRNKNSVA / WASTRGS / QQYHRYPLS, the assay gave no signal (0 of 3 replicates).
For ASSQSHLYESRNKNSVA / WASTRES / QQYHRLPLS, the assay gave 120 nM (3 of 3 replicates).
For GSFTSVLYESRNKNSVA / WASTRES / QQYHRLPLS, the assay gave 1.1 µM (3 of 3 replicates).
For PSSQLVLYESRNKNSVA / WASTRES / QQYHRLPLS, the assay gave no signal (0 of 3 replicates).
For HSSQSVLYESRNKNSVA / WASKRES / QQYHRLPLH, the assay gave 65 nM (3 of 3 replicates).
For NSIQSVLYESRNKNSVA / WASTRES / QLYHRLPLS, the assay gave 150 nM (3 of 3 replicates).
For NSSQSVLYESRNKNSVA / WASMREW / QQYHRLPLS, the assay gave 100 nM (3 of 3 replicates).
For LSSQSVLYESRNKNKVA / WASTRES / QNYHRLPLS, the assay gave no signal (0 of 3 replicates).
For SSSQSVTNESRNKNSVA / WASTRES / QQYHRLPLS, the assay gave 9.9 nM (3 of 3 replicates).
For TSSQSVLYESRNKNSVA / WWSTRES / QQYHRIPLS, the assay gave 260 µM (1 of 3 replicates).
For GSSGSVLYESRNKNSVA / WASTRES / QQYHRLPLE, the assay gave 110 nM (3 of 3 replicates).
For PSCQCVLYESRNKNSVA / WASTRES / QQYHRLPLS, the assay gave 3.2 µM (2 of 3 replicates).
For RSSQRVLYESRNKNSVA / WASTRES / QIYHRLPLS, the assay gave no signal (0 of 3 replicates).
For TSSQSVLYESRNKNSMA / WASTRES / QQWHRLPLS, the assay gave 1.2 µM (1 of 3 replicates).
For TSSQSVLYESRNKRSVA / WASTRES / YQYHRLPLS, the assay gave no signal (0 of 3 replicates).
For NSSTSVLDESRNKNSVA / WASTRES / QQYHRLPLS, the assay gave 120 nM (3 of 3 replicates).
For FSSQFVLYESRNKNSVA / WASTRES / QQYTRLPLS, the assay gave 2.2 µM (3 of 3 replicates).
For SSSQSVLYDSRNKNSVA / WASTRES / QQYHPLPLS, the assay gave no signal (0 of 3 replicates).
For SSSQSVLYESRNKNSVD / WASTRES / QQYHRCPLS, the assay gave 1.6 µM (1 of 3 replicates).
For LSSQSVVYESRNKNSVA / GASTRES / QQYHRLPLS, the assay gave 350 pM (3 of 3 replicates).
For CSSQSVLYESRNKNSVA / WASTCES / QQYHRLPLS, the assay gave 25 µM (1 of 3 replicates).
For WSSQSVLYESRNKNSVA / WASTRES / KQYHRLPLQ, the assay gave 120 nM (1 of 3 replicates).
For MSNQSVLYESRNKNSVA / WASTRES / QQDHRLPLS, the assay gave no signal (0 of 3 replicates).
For VSSQYVLYESRNKNSVA / WASTRED / QQYHRLPLS, the assay gave 250 nM (3 of 3 replicates).
For RSSQSVVYESRNKNSVL / WASTRES / QQYHRLPLS, the assay gave 6.8 µM (1 of 3 replicates).
For ASSQSVLYESRGKNSVA / WASTRES / QVYHRLPLS, the assay gave 1.1 µM (2 of 3 replicates).

Top 7 of the variants detected in all replicates, tightest first:

{"CDR-L1": "LSSQSVVYESRNKNSVA", "CDR-L2": "GASTRES", "CDR-L3": "QQYHRLPLS", "Kd (apparent)": "350 pM", "detected": "3 of 3"}
{"CDR-L1": "SSSQSVTNESRNKNSVA", "CDR-L2": "WASTRES", "CDR-L3": "QQYHRLPLS", "Kd (apparent)": "9.9 nM", "detected": "3 of 3"}
{"CDR-L1": "QSSQQVLYESRNKNSVA", "CDR-L2": "WASTRES", "CDR-L3": "QQYHRLPLS", "Kd (apparent)": "17 nM", "detected": "3 of 3"}
{"CDR-L1": "YSSQSVLYESRNKNSVA", "CDR-L2": "WASTRES", "CDR-L3": "QGVHRLPLS", "Kd (apparent)": "23 nM", "detected": "3 of 3"}
{"CDR-L1": "YSDQSVLYESRNKNSVA", "CDR-L2": "WASTRES", "CDR-L3": "QQYHRLPLC", "Kd (apparent)": "25 nM", "detected": "3 of 3"}
{"CDR-L1": "HSSQSVLYESRNKNSVA", "CDR-L2": "WASKRES", "CDR-L3": "QQYHRLPLH", "Kd (apparent)": "65 nM", "detected": "3 of 3"}
{"CDR-L1": "GSSQSVLYESRNKNSIA", "CDR-L2": "WASTRES", "CDR-L3": "NQYHRLPLS", "Kd (apparent)": "68 nM", "detected": "3 of 3"}

Empty control strains, which show no peptide, gave a signal in 18% of pairings with library AAYL50; the median was 15 µM and 95% of these signals were weaker than 970 nM. No background was subtracted. For reference, the parent read 4.4 nM as the reference entry and 48 nM as a member of this library.